MC4R barr agon = agonists of human melanocortin 4 receptor (MC4R) beta-arrestin; P32245; U2OS MC4R beta-arrestin complementation, luminescence; percent of melanotan II response, DMSO zero; activation, % at 8.9 µM; 0.98% of 360,000 active;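 active = activation above a per-plate cutoff, the mean activation of sample wells on that plate plus 3 SD, cut at about 8% in these data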
Yeast UUG start = modulators of yeast start codon fidelity, primary screen, whole organism, S. cerevisiae, single point, plate reader; S. cerevisiae UUG-firefly luciferase reporter, luminescence/redox ratio; activity score, % at 18.7 µM; actives 0.13% (n = 350,000); AID 602363, 2012;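 active = replicate mean at a twofold rise or more, about +100% in these data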;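 also: firefly luciferase made from a UUG start codon reports start codon fidelity; reporter light over untreated wells divided by growth signal over untreated wells; some hits fall short of that in this replicate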
ALR inh = human ALR oxidase inhibition via reduced H2O2; purified ALR, DTT oxidation, H2O2 HRP-luminol luminescence; P55789; 290,000 tested, 3.8% active; AID 485317; inhibition, % (no concentration beside the values);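 active means mean and each replicate at 75% or more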;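 further: stock transfer was 7.5 nL into about 7.5 µL; 0% = neutral wells and 100% = wells with inactivated enzyme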
MC4R antagonist = blocks human MC4R cAMP signaling; 0.48% of 360,000 active; inhibition, % at 6.5 µM; P32245; MC4R-expressing cells, MTII-stimulated cAMP, LANCE TR-FRET;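 active = inhibition above its plate's cutoff, the mean of tested wells on that plate plus 3 SD, cut at about 29% in these data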;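 also: 0% = Melanotan II alone and 100% = Melanotan II plus saturating MCL0020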
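system = U2OS cells with stable human MC4R expression | also added = Melanotan II challenge after compound preincubation | dosing = one concentration, 6.5 µM nominal | incubation = compound 30 min, challenge 1 h, detection 1 h | measured by = TR-FRET with Eu-cAMP and labeled anti-cAMP, 671 nm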
HDAC3 inhib = blocks human histone deacetylase 3; AID 2718; inhibition, % at 8.3 µM; recombinant HDAC3, fluorogenic peptide/trypsin coupled, fluorescence; 0.15% of 320,000 active; O15379; in the data active = inhibition above about 26%, passing the limit was not always enough; inconclusive = no clear call, values can overlap the other calls
NALP1 yeast inh = inhibitors of NALP1 inflammasome in yeast; AID 2071; inhibition, % at 10 µM; S. cerevisiae NALP1/ASC/caspase-1 growth, X-gal OD620, 72 h; 0.61% of 280,000 active; in the data active = inhibition mostly above about 24%, no sharp cut-off; inactive = mostly below about 32%
* hit, by the source's call; u = inconclusive; x = no result given. Compounds with a hit are over-represented: about 4.2% of the library has one in this group of screens.

SMILES	MC4R barr agon	Yeast UUG start	ALR inh	MC4R antagonist	HDAC3 inhib	NALP1 yeast inh
O=C(O)C1C(c2ccccc2)=C1c1ccc(Br)cc1 (stereo not given)	-2.5	x	x	-0.8	x	x
NC(=O)C1C(c2ccccc2)=C1c1ccccc1	-3.4	-21.9	96.6*	-2.9	-3.2	5.0
COc1ccc(NC(=S)N(Cc2ccc(Cl)cc2)Cc2ccc(C(=O)O)cc2)cc1Cl	-0.8	-9.3	95.5*	16.6	2.7	12.9
CN(C)CCCN(Cc1ccccc1)C(=S)Nc1ccc(F)c(Cl)c1	2.0	-17.9	-0.6	4.5	-1.6	33.4*
Cc1cc(NC(=S)N(Cc2ccc(Cl)cc2)Cc2ccc(C(=O)O)cc2)ccc1Cl	-2.6	-18.8	2.3	18.2	8.6	7.2
CN(C)CCCN(Cc1ccccc1)C(=S)Nc1cccc(C(F)(F)F)c1	2.0	-5.0	3.2	14.8	9.4	18.0
Cc1noc(C)c1C(=O)N1CCCC(Nc2ccc(C(C)C)cc2)C1 (stereo not given)	-1.2	-14.9	98.1*	-3.2	0.3	13.6
COc1ccc(NC2CCCN(C(=O)c3c(C)noc3C)C2)cc1 (stereo not given)	0.3	-14.4	98.8*	3.4	9.9	11.5
C[C@H]1CN([C@@H](C)CO)C(=O)c2cc(NS(=O)(=O)c3cccs3)ccc2O[C@@H]1CN(C)S(=O)(=O)c1ccc(Cl)cc1	x	2.7	x	x	x	x
CCN(CC)c1ccc(/C=N/N2CCOCC2)c(O)c1	0.9	-10.8	u	6.0	3.6	34.5

Only MC4R barr agon, for two of the compounds above:
Compound | MC4R barr agon
COc1ccc(NC(=S)N(Cc2ccc(Cl)cc2)Cc2ccc(C(=O)O)cc2)cc1Cl | -0.8
CN(C)CCCN(Cc1ccccc1)C(=S)Nc1ccc(F)c(Cl)c1 | 2.0

(continued)
SMILES	MC4R barr agon	Yeast UUG start	ALR inh	MC4R antagonist	HDAC3 inhib	NALP1 yeast inh
CCN(CC)c1ccc(N=CN2CCOCC2)cc1	1.1	-17.1	98.4*	-6.4	2.3	7.3
COc1ccc(S(=O)(=O)N[C@@H]2CC[C@@H](CC(=O)N3CCc4ccccc4C3)O[C@@H]2CO)cc1	x	-4.3	x	x	x	x
O=c1oc(-c2ccco2)nc2c1cnn2-c1ccccc1	-2.8	-12.4	7.2	24.5	61.8*	15.8
CC(=O)N[C@@H]1CC[C@H](CCNC(=O)C2CC2)O[C@H]1CO	x	-12.5	x	x	x	x
CCOc1ccc(/C=C(\C#N)C(=O)NCC2CCCO2)cc1OCC (stereo not given)	0.9	-33.2	-1.8	9.0	7.3	10.5
COc1cc(/C=C(\C#N)C(=O)NCC2CCCO2)ccc1O (stereo not given)	-0.2	1.0	99.0*	-6.1	4.6	-29.6
COc1cc(/C=N/NC(=O)C(=O)NCC2CCCO2)ccc1O (stereo not given)	-0.2	x	98.9*	1.2	7.3	3.4
CCOc1cc(/C=N/NC(=O)C(=O)NCC2CCCO2)ccc1OCC(=O)N1CCOCC1 (stereo not given)	-1.2	1.0	1.8	19.0	7.4	x
COc1cccc(S(=O)(=O)Nc2ccc3c(c2)C(=O)N(C)C[C@@H](OC)[C@H](C)CN(C(=O)Cc2cccnc2)[C@@H](C)CO3)c1	x	-4.9	x	x	x	x
Cc1ccc2[nH]cc(/C=C/c3cc[n+](C)cc3)c2c1	-1.2	-8.8	98.3*	-29.2	9.6	12.3

The last 3 entries of the section before open the next one:
SMILES	MC4R barr agon	Yeast UUG start	ALR inh	MC4R antagonist	HDAC3 inhib	NALP1 yeast inh
CCOc1cc(/C=N/NC(=O)C(=O)NCC2CCCO2)ccc1OCC(=O)N1CCOCC1 (stereo not given)	-1.2	1.0	1.8	19.0	7.4	x
COc1cccc(S(=O)(=O)Nc2ccc3c(c2)C(=O)N(C)C[C@@H](OC)[C@H](C)CN(C(=O)Cc2cccnc2)[C@@H](C)CO3)c1	x	-4.9	x	x	x	x
Cc1ccc2[nH]cc(/C=C/c3cc[n+](C)cc3)c2c1	-1.2	-8.8	98.3*	-29.2	9.6	12.3
O=C(O)CN1C(=O)/C(=C\c2cccc(OCc3ccc(Cl)cc3)c2)SC1=S	0.8	-9.8	97.4*	10.2	7.5	x
C=CCSC1=N/C(=C\C=C\c2ccco2)C(=O)S1	0.4	-9.7	98.7*	3.9	7.9	1.8
Cc1ccc(CN2C(=O)CCC2C(=O)N2CCN(c3ccc(F)cc3)CC2)cc1 (stereo not given)	-1.5	7.5	91.1*	-3.1	-4.8	-8.4
O=C(C1CCC(=O)N1Cc1cccnc1)N1CCN(c2ccc(F)cc2)CC1 (stereo not given)	0.6	-13.1	29.1	13.3	8.0	1.0
COc1cccc(/C=N/NC(=O)c2ccc3nc[nH]c3c2)c1O	0.7	-15.5	38.4	-3.3	13.9	8.9
O=C(N/N=C/c1ccccc1[N+](=O)[O-])c1ccc2nc[nH]c2c1	-1.4	-20.7	7.8	-1.0	96.3*	-2.0
CCN(CC)c1ccc(/C=N/NC(=S)NC)c(O)c1	-1.3	x	98.0*	-3.7	2.5	3.7
CCN(CC)c1ccc(/C=N/NC(=O)c2ccoc2C)c(O)c1	0.4	-13.4	72.0	-6.6	-4.0	6.6
CCN(CC)c1ccc(/C=N/NC(=O)OC)c(O)c1	3.7	-29.5	98.5*	5.6	5.3	3.7
O=C(N/N=C/c1ccc(Cl)c([N+](=O)[O-])c1)c1ccc2nc[nH]c2c1	-2.6	-10.0	4.0	11.7	-0.7	-27.5
CCN(CC)c1ccc(/C=N/NC(=O)c2ccc3nc[nH]c3c2)c(O)c1	3.0	-35.1	97.0*	-1.8	5.6	x
Cc1cc(NC(=O)Nc2cccc(C)c2C)no1	-0.9	x	99.3*	-5.6	-9.4	3.8
Cc1cccc(NC(=O)Nc2cc(C)on2)c1	0.0	4.1	0.3	-4.5	-4.1	21.6
O=C(C[C@@H]1CC[C@H](NC(=O)Nc2ccc(C(F)(F)F)cc2)[C@@H](CO)O1)NCCN1CCCC1	x	-4.7	x	x	x	x
COc1ccc(S(=O)(=O)Nc2ccc3c(c2)C(=O)N([C@@H](C)CO)C[C@@H](C)[C@@H](CN(C)Cc2ccc4c(c2)OCO4)OCCCC[C@H](C)O3)cc1	x	9.3	x	x	x	x
Cc1ccc(C2Nc3ccccc3NC3=C2C(=O)OC(C)C3)cc1 (stereo not given)	-0.9	x	99.2*	1.5	3.1	16.3
CC1CC2=C(C(=O)O1)C(c1ccc(Cl)cc1)Nc1ccccc1N2 (stereo not given)	1.8	x	98.8*	-5.7	8.6	32.9
O=C1NCC2=C1C(c1ccccc1)Nc1ccccc1N2 (stereo not given)	1.9	27.7	72.3	7.7	1.5	-16.1
CCCC#Cc1ccc2c(c1)O[C@@H](CN(C)C(=O)COC)[C@@H](C)CN([C@H](C)CO)S2(=O)=O	x	0.1	x	x	x	x
CC(Nc1ccc(F)cc1F)C(=O)NC(=O)NC1CCCCC1 (stereo not given)	-2.4	x	-13.9	2.5	2.8	-11.2
CCOc1ccccc1NC(C)C(=O)NC(=O)NC1CCCCC1 (stereo not given)	-1.1	1.8	87.8*	8.6	-3.3	x
COC(=O)C1(C(C[N+](=O)[O-])c2ccc(C)cc2)C(=O)NCC1c1ccco1 (stereo not given)	-1.2	-0.5	-3.9	7.0	2.2	45.7*
CCCNC(=O)C[C@@H]1CC[C@H]2[C@H](COc3ccc(NC(=O)c4ccc(OC)cc4)cc3C(=O)N2C)O1	x	5.1	x	x	x	x
C[C@@H]1CN([C@@H](C)CO)C(=O)Cc2cc(NC(=O)Cc3ccccc3)ccc2O[C@H]1CN(C)C(=O)Nc1ccc2c(c1)OCO2	x	2.3	x	x	x	x
COc1cccc(N=c2oc3ccc(OC)cc3cc2-c2nc3ccccc3[nH]2)c1	8.5*	-6.9	-7.9	-14.5	-7.9	21.6
COc1cccc(N=c2oc3ccccc3cc2-c2nc3ccccc3[nH]2)c1	0.6	-31.9	-26.8	5.1	2.7	16.6

Source: PubChem BioAssay
